Key:
[1] = biological target: T1, Mec1-Ddc2-S4 complex (budding yeast, UniProt P38111; Q04377, K263E | H382Y); test: pull-down; streptavidin beads coated with biotinylated oligonucleotide bio-oligo(dN)80 (5 pmol), incubated with RPA (1 pmol) for 30 min, then with Mec1-Ddc2, Mec1-Ddc2-S4, MBP, MBP-Ddc2 or MBP-Ddc2-S4 (0.5 pmol) for 30 min; buffer B (20 mM Tris-HCl pH 7.5, 100 mM NaCl, 0.01% NP-40, 10% glycerol, 100 μg/ml BSA), 30°C; immunoblot of captured proteins; conditions: both partners purified
T1 construct: Mec1 (ATR homolog), budding yeast; expressed from pRS424-GAL-FLAG-MEC1; Ddc2 (ATRIP homolog), budding yeast, with the two ddc2-S4 substitutions; also called Mec1-Ddc2 complex containing Ddc2-S4 mutant; source: S. cerevisiae (KSC3218), overexpressed from the GAL promoter, purified (ANTI-FLAG-M2 agarose, Ni-NTA agarose); not shown: HA, N-terminal, kept

[2] = biological target: T2, Mec1-Ddc2 complex (budding yeast, UniProt P38111; Q04377); test: pull-down; Mec1-Ddc2 (0.5 pmol) and RPA (1 pmol) incubated with ANTI-FLAG-M2 agarose with or without bio-oligo(dN)80 (5 pmol); buffer B (20 mM Tris-HCl pH 7.5, 100 mM NaCl, 0.01% NP-40, 10% glycerol, 100 μg/ml BSA), 30 min, 30°C; immunoblot with anti-FLAG, anti-HA, anti-Rfa1; conditions: both partners purified
T2 construct: Mec1 (ATR homolog), budding yeast; expressed from pRS424-GAL-FLAG-MEC1; Ddc2 (ATRIP homolog), budding yeast; also called ATR-ATRIP homolog; source: S. cerevisiae (KSC3218), overexpressed from the GAL promoter, purified (ANTI-FLAG-M2 agarose, Ni-NTA agarose); not shown: HA, N-terminal, kept; copies: 2 + 2

binding result [1]: binds
binding result [2]: binds
B1: Replication protein A (RPA), consisting of Rfa1, Rfa2 and Rfa3 (complex, budding yeast)
chain 1: MSSVQLSRGDFHSIFTNKQRYDNPTGGVYQVYNTRKSDGANSNRKNLIMISDGIYHMKALLRNQAASKFQSMELQRGDIIRVIIAEPAIVRERKKYVLLVDDFELVQSRADMVNQTSTFLDNYFSEHPNETLKDEDITDSGNVANQTNASNAGVPDMLHSNSNLNANERKFANENPNSQKTRPIFAIEQLSPYQNVWTIKARVSYKGEIKTWHNQRGDGKLFNVNFLDTSGEIRATAFNDFATKFNEILQEGKVYYVSKAKLQPAKPQFTNLTHPYELNLDRDTVIEECFDESNVPKTHFNFIKLDAIQNQEVNSNVDVLGIIQTINPHFELTSRAGKKFDRRDITIVDDSGFSISVGLWNQQALDFNLPEGSVAAIKGVRVTDFGGKSLSMGFSSTLIPNPEIPEAYALKGWYDSKGRNANFITLKQEPGMGGQSAASLTKFIAQRITIARAQAENLGRSEKGDFFSVKAAISFLKVDNFAYPACSNENCNKKVLEQPDGTWRCEKCDTNNARPNWRYILTISIIDETNQLWLTLFDDQAKQLLGVDANTLMSLKEEDPNEFTKITQSIQMNEYDFRIRAREDTYNDQSRIRYTVANLHSLNYRAEADYLADELSKALLA
chain 2: MATYQPYNEYSSVTGGGFENSESRPGSGESETNTRVNTLTPVTIKQILESKQDIQDGPFVSHNQELHHVCFVGVVRNITDHTANIFLTIEDGTGQIEVRKWSEDANDLAAGNDDSSGKGYGSQVAQQFEIGGYVKVFGALKEFGGKKNIQYAVIKPIDSFNEVLTHHLEVIKCHSIASGMMKQPLESASNNNGQSLFVKDDNDTSSGSSPLQRILEFCKKQCEGKDANSFAVPIPLISQSLNLDETTVRNCCTTLTDQGFIYPTFDDNNFFAL
chain 3: MASETPRVDPTEISNVNAPVFRIIAQIKSQPTESQLILQSPTISSKNGSEVEMITLNNIRVSMNKTFEIDSWYEFVCRNNDDGELGFLILDAVLCKFKENEDLSLNGVVALQRLCKKYPEIY
notes: Rfa1, subunit of budding yeast RPA; Rfa2, subunit of budding yeast RPA; Rfa3, subunit of budding yeast RPA; also called budding yeast RPA protein; source: purified as described [83]; copies: + +

Reference: publication PMC6692047, “Ddc2^ATRIP promotes Mec1^ATR activation at RPA-ssDNA tracts” (PLoS Genetics, 2019)
